According to patent publication US8685394B2, “Combination of anti-CTLA4 antibody with diverse therapeutic regimens for the synergistic treatment of proliferative diseases” (Bristol-Myers Squibb Company, priority 2008, dated 2014):

Test system: in vivo cytotoxicity
Settings: FIG. 12

## 4′-Demethylepipodophyllotoxin 9-[4,6-O-(R)-ethylidene-β-D-glucopyranoside], 4′-(dihydrogen phosphate) [Etoposide]
  in vivo cytotoxicity: promote in vivo cytotoxicity
